Results taken from ChEMBL document CHEMBL5375987, “Structural Fusion of Natural and Synthetic Ligand Features Boosts RXR Agonist Potency” (J Med Chem, 2023).
Active and inactive are the calls of the source.

Amino acid sequences for entries named in this document (tags omitted). A change or cut given only in a name is not applied to a line headed by its entry.
UniProt Q13285, whole entry: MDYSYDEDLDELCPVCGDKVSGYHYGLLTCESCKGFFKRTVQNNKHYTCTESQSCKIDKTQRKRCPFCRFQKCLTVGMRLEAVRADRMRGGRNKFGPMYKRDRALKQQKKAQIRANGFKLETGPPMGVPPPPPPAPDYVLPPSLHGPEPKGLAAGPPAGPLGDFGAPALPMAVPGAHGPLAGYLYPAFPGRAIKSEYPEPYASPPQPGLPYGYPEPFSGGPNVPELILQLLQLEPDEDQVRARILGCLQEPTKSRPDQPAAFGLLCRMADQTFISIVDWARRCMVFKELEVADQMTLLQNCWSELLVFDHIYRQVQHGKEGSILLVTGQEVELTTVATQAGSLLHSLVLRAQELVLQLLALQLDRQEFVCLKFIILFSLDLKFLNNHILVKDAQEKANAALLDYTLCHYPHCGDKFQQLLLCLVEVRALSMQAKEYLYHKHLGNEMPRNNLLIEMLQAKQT
UniProt P37231: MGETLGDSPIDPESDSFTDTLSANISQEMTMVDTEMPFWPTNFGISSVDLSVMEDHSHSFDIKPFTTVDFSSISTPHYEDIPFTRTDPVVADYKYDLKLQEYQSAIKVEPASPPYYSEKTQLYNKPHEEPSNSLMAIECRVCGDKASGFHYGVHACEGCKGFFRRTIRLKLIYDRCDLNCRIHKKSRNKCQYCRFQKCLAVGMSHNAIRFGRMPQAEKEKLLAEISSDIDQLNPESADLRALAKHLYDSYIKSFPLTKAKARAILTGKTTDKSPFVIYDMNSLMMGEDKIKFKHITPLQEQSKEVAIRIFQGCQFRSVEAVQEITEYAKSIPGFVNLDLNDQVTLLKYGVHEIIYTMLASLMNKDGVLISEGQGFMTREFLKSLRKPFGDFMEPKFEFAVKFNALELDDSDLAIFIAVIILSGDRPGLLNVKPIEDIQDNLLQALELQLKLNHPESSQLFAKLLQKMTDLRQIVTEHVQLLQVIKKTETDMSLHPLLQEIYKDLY
UniProt Q9Y466: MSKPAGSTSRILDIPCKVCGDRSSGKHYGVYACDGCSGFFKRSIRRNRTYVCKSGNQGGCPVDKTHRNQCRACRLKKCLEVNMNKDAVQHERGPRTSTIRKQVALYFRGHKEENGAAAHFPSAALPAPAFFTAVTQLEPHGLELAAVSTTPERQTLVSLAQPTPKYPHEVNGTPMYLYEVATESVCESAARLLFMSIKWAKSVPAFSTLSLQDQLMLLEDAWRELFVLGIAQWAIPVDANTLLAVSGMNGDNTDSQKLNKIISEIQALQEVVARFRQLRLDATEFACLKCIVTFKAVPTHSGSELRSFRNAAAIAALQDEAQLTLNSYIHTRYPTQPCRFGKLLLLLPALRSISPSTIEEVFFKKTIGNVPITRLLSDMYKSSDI
UniProt P51449: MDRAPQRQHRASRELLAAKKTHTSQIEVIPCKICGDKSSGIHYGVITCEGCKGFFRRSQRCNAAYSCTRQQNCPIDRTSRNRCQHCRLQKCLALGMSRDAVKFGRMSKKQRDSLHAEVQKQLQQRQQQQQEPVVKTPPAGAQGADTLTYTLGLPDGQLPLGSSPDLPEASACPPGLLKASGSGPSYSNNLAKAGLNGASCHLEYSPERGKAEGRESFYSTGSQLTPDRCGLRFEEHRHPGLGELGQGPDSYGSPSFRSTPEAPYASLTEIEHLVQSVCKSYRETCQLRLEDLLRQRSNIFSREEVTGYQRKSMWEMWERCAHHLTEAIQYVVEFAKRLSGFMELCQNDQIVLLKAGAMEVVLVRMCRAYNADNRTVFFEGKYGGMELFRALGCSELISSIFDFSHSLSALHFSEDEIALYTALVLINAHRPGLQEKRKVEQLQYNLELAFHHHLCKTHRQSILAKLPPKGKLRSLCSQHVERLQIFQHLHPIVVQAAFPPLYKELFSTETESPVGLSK
UniProt P10276, whole entry: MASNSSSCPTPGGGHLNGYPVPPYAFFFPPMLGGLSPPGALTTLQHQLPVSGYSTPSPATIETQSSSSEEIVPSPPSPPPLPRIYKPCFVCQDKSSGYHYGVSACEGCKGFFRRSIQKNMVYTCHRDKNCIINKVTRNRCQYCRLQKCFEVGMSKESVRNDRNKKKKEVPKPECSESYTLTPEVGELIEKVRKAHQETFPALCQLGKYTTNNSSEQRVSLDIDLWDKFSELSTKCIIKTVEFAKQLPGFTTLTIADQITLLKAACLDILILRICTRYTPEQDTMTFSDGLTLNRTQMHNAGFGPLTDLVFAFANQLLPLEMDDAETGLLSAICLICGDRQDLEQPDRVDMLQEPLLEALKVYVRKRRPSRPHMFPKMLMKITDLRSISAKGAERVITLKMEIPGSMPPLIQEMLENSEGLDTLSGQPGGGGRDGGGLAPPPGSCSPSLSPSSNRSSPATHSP

Assays:
[1] = biological target: Steroidogenic factor 1 (Homo sapiens) (UniProt Q13285); test: Agonist activity at NR5A1 (unknown origin) at 1 uM
[2] = biological target: T1, Nuclear receptor ROR-beta (Homo sapiens) (UniProt Q92753); test: Antagonist activity at NR1F2 (unknown origin) at 1 uM
T1 sequence (whole entry): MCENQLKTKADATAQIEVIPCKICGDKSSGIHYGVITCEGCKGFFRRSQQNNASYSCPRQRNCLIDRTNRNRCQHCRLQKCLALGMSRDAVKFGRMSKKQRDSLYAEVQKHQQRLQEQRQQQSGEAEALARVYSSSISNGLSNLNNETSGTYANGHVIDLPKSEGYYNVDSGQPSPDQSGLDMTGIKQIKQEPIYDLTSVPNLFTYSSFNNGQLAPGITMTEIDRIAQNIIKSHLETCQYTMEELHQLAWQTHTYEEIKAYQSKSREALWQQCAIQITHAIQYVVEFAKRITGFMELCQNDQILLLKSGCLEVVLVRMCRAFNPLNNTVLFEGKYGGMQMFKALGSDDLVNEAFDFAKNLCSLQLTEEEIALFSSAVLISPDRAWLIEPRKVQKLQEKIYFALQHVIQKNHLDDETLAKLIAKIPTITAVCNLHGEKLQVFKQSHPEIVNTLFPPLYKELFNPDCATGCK

[3] = biological target: T2, Thyroid hormone receptor alpha (Homo sapiens) (UniProt P10827); test: Agonist activity at NR1A1 (unknown origin) at 1 uM
T2 sequence (whole entry): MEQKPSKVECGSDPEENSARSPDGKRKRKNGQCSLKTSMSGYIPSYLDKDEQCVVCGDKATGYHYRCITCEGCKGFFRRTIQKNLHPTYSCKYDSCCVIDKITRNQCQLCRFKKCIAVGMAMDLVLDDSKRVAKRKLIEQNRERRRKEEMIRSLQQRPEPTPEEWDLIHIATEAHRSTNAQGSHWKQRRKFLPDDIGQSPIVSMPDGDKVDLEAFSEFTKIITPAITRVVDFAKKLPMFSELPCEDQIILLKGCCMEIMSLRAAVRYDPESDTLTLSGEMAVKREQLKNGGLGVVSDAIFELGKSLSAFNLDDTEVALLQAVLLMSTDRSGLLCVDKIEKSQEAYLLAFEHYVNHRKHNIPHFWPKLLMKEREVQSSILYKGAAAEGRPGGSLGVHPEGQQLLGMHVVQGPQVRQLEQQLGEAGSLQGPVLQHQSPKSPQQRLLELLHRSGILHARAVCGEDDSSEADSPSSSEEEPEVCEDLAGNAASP

[4] = biological target: T3, Nuclear receptor subfamily 2 group C member 1 (Homo sapiens) (UniProt P13056); test: Inverse agonist activity at NR2C1 (unknown origin) at 1 uM
T3 sequence (whole entry): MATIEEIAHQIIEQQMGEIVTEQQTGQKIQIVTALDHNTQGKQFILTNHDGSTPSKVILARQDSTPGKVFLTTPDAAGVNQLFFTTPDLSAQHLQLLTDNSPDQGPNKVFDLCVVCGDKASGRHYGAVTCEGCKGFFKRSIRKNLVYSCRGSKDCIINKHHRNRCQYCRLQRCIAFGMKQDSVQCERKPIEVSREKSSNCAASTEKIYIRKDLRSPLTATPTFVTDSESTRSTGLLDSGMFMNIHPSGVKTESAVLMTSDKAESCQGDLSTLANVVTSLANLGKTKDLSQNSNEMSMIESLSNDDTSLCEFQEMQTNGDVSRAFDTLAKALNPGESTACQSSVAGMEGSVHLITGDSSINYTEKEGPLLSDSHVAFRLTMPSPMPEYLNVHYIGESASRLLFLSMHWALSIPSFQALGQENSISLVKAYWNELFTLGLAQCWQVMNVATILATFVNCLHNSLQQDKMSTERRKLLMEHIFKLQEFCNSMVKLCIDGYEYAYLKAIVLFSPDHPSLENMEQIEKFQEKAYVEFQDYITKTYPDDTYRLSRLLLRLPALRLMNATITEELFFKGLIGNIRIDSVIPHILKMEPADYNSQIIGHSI

[5] = biological target: T2, Thyroid hormone receptor alpha (Homo sapiens); test: Antagonist activity at NR1A1 (unknown origin) at 1 uM
[6] = biological target: T4, Thyroid hormone receptor beta (Homo sapiens) (UniProt P10828); test: Inverse agonist activity at NR1A2 (unknown origin) at 1 uM
T4 sequence (whole entry): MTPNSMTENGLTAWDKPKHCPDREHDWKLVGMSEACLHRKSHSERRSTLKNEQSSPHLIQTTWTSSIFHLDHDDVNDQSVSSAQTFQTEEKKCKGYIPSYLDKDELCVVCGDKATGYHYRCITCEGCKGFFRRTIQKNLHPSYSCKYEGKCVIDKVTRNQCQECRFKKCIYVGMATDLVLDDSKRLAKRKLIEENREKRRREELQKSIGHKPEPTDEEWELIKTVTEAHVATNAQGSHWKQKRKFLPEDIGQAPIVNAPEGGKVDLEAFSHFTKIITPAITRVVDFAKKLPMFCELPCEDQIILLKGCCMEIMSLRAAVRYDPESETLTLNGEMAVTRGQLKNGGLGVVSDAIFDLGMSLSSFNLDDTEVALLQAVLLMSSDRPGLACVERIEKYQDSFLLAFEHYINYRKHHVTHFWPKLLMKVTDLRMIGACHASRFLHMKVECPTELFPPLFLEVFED

[7] = biological target: Peroxisome proliferator-activated receptor gamma (Homo sapiens) (UniProt P37231); test: Antagonist activity at NR1C3 (unknown origin) at 1 uM
[8] = biological target: Nuclear receptor subfamily 2 group E member 1 (Homo sapiens) (UniProt Q9Y466); test: Inverse agonist activity at NR2E1 (unknown origin) at 1 uM
[9] = biological target: Nuclear receptor ROR-gamma (Homo sapiens) (UniProt P51449); test: Agonist activity at NR1F3 (unknown origin) at 1 uM
[10] = biological target: T5, Peroxisome proliferator-activated receptor delta (Homo sapiens) (UniProt Q03181); test: Inverse agonist activity at NR1C2 (unknown origin) at 1 uM
T5 sequence (whole entry): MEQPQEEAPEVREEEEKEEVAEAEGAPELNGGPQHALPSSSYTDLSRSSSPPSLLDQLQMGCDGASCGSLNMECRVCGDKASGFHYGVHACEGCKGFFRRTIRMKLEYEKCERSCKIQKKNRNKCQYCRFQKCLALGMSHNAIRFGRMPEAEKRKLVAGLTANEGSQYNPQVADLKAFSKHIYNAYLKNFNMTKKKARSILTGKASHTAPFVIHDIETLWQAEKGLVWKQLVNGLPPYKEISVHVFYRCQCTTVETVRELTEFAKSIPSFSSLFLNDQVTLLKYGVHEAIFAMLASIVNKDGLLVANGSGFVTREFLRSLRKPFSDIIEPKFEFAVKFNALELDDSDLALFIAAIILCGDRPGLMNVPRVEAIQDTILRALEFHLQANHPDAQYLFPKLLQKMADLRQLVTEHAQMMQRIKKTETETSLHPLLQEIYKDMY

[11] = biological target: T5, Peroxisome proliferator-activated receptor delta (Homo sapiens); test: Antagonist activity at NR1C2 (unknown origin) at 1 uM
[12] = biological target: Retinoic acid receptor alpha (Homo sapiens) (UniProt P10276); test: Agonist activity at NR1B1 (unknown origin) at 1 uM

Measured: Activity

O=C(O)[C@@H]1C[C@H]1c1nc(-c2ccccc2)c(-c2cc(C(F)(F)F)cc(C(F)(F)F)c2)o1 (racemic)
inactive: all assays above
